Reference: US20090171105A1, “METHOD FOR PRODUCTION OF HYDROCHLORIDE 1(10) BETA-EPOXY-13-DIMETHYLAMINO-5,7ALPHA,6,11BETA (H)-GUAIA-3(4)-EN-6,12-OLIDE, THE LYOPHILIZED ANTITUMOR PREPARATION 'ARGLABIN'” (priority 2006, published 2009)

Key:
preclinical toxicology = assay type: in vivo
[1] = time-retention and tissue distribution; assay type: in vivo
Protocol: The preparation has a sufficiently high parameter of time-retention in an organism (almost 22 hours).

[2] = as much as possible tolerable doses

## 1(10)β-epoxy-13-dimethylamino-5,7α,6,11β(H)-guaia-3(4)-en-6,12-olide hydrochloride [Arglabin]
Preclinical toxicology; [2]
  function state of liver, kidneys, cardiovascular system, breathing, peripheral nervous system: does not break
  influence on morphological structure of peripheral blood and osseous tissue: does not influence
Preclinical toxicology; in vivo
  allergenic and pyrogenic properties: are not revealed
  embryotoxic, teratogenic and mutafacient properties: has no embryotoxic, teratogenic and mutafacient properties
Preclinical toxicology; intravenous, intraperitoneal, intramuscular, hypodermic introduction
  topical-irritating action: does not render topical-irritating action
[1]; during the first hour
  tissues with the greatest concentrations: lien and lung
[1]; in 3 hours
  tissues in which it is also collected: liver and skeletal muscles
[1]; in vivo
  penetration from central camera (blood) into peripheral tissues: quickly penetrates
  time-retention in an organism: ~22 h
